Usually chromatographic logP stands for a lipophilicity value derived from retention on a column.

Chains of the proteins cited; added tags and fusions are not shown.
UniProt P34913, whole entry: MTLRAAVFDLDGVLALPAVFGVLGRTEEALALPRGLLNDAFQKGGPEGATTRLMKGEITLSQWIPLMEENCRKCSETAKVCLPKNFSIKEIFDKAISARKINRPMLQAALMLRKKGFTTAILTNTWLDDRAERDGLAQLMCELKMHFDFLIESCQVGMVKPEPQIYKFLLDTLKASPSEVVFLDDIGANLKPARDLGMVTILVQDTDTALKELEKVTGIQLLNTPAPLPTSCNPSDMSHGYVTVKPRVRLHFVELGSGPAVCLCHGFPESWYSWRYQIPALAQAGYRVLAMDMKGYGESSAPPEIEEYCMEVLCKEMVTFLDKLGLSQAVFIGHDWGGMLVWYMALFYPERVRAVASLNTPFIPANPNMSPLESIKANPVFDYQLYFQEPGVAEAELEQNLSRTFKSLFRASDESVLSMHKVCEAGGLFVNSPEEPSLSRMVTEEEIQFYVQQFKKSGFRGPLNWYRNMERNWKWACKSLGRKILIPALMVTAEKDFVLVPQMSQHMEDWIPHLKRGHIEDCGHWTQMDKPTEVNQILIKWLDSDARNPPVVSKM

System in one data set: not listed separately
The data set is described as follows: Experimental logP by HPLC method.
In turn, `Cc1ccoc1C(=O)N1CCC(NC(=O)Nc2ccc(OC(F)(F)F)cc2)CC1` registered a chromatographic logP of 4.48.

Compound `O=C(Nc1ccc(OC(F)(F)F)cc1)NC1CCN(C(=O)c2cc[nH]c2)CC1` [Compound 2, 1-(1-(1H-pyrrole-3-carbonyl)piperidin-4-yl)-3-(4-(trifluoromethoxy)phenyl)urea] gave a chromatographic logP of 3.34.

For the compound `O=C(Nc1ccc(OC(F)(F)F)cc1)NC1CCN(C(=O)c2ccoc2)CC1` [Compound 3, 1-(1-(furan-3-carbonyl)piperidin-4-yl)-3-(4-(trifluoromethoxy)phenyl)urea], the chromatographic logP is 3.63.

For the compound `O=C(Nc1ccc(OC(F)(F)F)cc1)NC1CCN(C(=O)C2=COCC2)CC1` [Compound 5, 1-(1-(4,5-dihydrofuran-3-carbonyl)piperidin-4-yl)-3-(4-(trifluoromethoxy)phenyl)urea], the chromatographic logP was determined as 3.49.

In turn, `O=C(Nc1ccc(OC(F)(F)F)cc1)NC1CCN(C(=O)C2CCCOC2)CC1` (stereo not shown) [Compound 8, 1-(1-(tetrahydro-2H-pyran-3-carbonyl)piperidin-4-yl)-3-(4-(trifluoromethoxy)phenyl)urea] yielded a chromatographic logP of 3.42.

`O=C(Nc1ccc(C(F)(F)F)cc1)NC1CCN(C(=O)C2CCOCC2)CC1` [Compound 9, 1-(1-(tetrahydro-2H-pyran-4-carbonyl)piperidin-4-yl)-3-(4-(trifluoromethyl)phenyl)urea]: the chromatographic logP was 3.16.

Consider `O=C(Nc1ccc(C(F)(F)F)cc1)NC1CCN(C(=O)c2ccoc2)CC1` [Compound 10, 1-(1-(furan-3-carbonyl)piperidin-4-yl)-3-(4-(trifluoromethyl)phenyl)urea], for which the chromatographic logP stood at 3.5.

`Cc1occc1C(=O)N1CCC(NC(=O)Nc2ccc(C(F)(F)F)cc2)CC1` [Compound 13, 1-(1-(2-methylfuran-3-carbonyl)piperidin-4-yl)-3-(4-(trifluoromethyl)phenyl)urea] had a chromatographic logP of 4.19.

For `O=C(Nc1ccc(OC(F)(F)F)c(F)c1)NC1CCN(C(=O)C2CCCOC2)CC1` (stereo not shown) [Compound 27], the chromatographic logP was 4.09.

A further data set deals with human sEH (Homo sapiens (Human), UniProt P34913).
Assay: not given
`O=C(Nc1ccc(C(F)(F)F)cc1)NC1CCN(C(=O)C2CCOC2)CC1` (stereo not shown) [Compound 18, 1-(1-(tetrahydrofuran-3-carbonyl)piperidin-4-yl)-3-(4-(trifluoromethyl)phenyl)urea]: the “t1/2 (min) human sEH” value stood at 10 min.

(Values after US10377744B2, “Potent soluble epdxide hydrolase inhibitors” (Eicosis, LLC, priority 2014, dated 2019).)
